Reference: PMC2818599

Legend:
[1] = molecular target: HLA-DR DRB1 *0802 (human); test: radioligand binding
[2] = molecular target: HLA-DR DRB5 *0101 (human); test: radioligand binding

HER-2/neu.783 (peptide)
IC50 [1]: 634 nM | IC50 [2]: 392 nM
